For assay [1], the target named is ERK2 (Mus musculus, UniProt P63085). Nature of the assay: Fluorescence titration (quenching of intrinsic ERK2 fluorescence). Type of assay: binding.
The subject of assay [2] is HeLa, A549, or SUM-159 cells. Kind of assay: Colony formation assay, screen of test compounds (FIG. 7A). Details: dose or concentration left out as unconfirmed. Particulars: FIG. 7A screen as printed.

By UniProt entry, the sequences of proteins in these tests, tags left out.
UniProt P63085, whole entry: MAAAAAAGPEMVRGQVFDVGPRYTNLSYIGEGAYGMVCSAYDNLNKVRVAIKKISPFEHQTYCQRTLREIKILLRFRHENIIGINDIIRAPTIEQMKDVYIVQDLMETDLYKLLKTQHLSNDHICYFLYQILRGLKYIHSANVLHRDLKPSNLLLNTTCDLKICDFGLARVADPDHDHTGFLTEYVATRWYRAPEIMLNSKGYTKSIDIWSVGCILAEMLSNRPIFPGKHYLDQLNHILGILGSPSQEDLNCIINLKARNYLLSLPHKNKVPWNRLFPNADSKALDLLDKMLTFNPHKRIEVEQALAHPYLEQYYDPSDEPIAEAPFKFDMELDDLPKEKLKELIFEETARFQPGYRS

In the case of `O=C(CSc1nc2ccccc2o1)Nc1ccc(-n2cnnn2)cc1`, the “ERK2 fluorescence quenching / binding (in words)” value in assay [1] is listed as “bind to directly ERK2”. In assay [2], the “effect on colony formation / cell proliferation (in words)” value is on record as “inhibited colony formation”.

For the origin of these results see US20070066616A1, “Inhibitors for extracellular signal-regulated kinase docking domains and uses therefor” (priority 2005, published 2007).
